pIC50: −log10 of the molar value.
Tested on: DU-145
Experiment: Cytotoxicity against human DU-145 cells assessed as reduction in cell growth incubated for 48 hrs by MTT assay

Cc1c(C)c(O)c2c(c1O)C(=O)C=C(SCCCl)C2=O
pIC50: 6.15

Reference: ChEMBL document CHEMBL5512632, “Unlocking the potential of 1,4-naphthoquinones: A comprehensive review of their anticancer properties” (Eur J Med Chem, 2024)
